{
  "sequences": {"note": "Chains of the proteins cited; added tags and fusions are not shown. Lines headed by an entry give the natural chain unless they say otherwise; changes in a name come on top. Residues count along the entry.", "UniProt O43293": "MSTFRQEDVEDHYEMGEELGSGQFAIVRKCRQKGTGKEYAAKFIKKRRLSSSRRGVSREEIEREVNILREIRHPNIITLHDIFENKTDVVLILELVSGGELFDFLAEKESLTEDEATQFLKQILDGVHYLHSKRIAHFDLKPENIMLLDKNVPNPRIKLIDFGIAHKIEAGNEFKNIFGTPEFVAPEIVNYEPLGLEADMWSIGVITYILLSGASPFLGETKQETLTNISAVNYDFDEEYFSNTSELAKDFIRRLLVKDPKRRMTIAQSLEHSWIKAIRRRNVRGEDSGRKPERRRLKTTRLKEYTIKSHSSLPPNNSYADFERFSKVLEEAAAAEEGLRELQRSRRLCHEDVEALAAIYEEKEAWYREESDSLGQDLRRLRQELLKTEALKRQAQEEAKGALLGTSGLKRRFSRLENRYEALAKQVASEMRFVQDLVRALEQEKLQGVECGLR", "UniProt P57058": "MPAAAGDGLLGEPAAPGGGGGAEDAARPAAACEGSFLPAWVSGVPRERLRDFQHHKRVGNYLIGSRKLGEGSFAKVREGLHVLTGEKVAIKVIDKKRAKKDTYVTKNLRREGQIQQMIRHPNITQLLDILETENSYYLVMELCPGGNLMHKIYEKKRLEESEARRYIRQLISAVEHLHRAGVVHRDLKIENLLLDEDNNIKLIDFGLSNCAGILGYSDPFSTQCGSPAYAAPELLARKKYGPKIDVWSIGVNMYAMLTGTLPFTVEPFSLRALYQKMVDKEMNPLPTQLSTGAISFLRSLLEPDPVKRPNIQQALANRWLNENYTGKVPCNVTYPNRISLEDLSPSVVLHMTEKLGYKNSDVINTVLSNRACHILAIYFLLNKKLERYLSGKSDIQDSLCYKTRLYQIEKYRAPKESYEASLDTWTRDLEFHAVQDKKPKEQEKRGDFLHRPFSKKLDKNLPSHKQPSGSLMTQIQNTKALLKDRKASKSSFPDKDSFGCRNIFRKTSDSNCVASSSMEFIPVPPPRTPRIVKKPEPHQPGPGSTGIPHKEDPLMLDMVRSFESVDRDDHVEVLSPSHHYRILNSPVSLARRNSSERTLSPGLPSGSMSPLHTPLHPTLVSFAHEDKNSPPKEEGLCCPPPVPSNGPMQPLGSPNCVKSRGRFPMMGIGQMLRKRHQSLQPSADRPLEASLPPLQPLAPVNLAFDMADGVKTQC", "UniProt P16234, 24-1089": "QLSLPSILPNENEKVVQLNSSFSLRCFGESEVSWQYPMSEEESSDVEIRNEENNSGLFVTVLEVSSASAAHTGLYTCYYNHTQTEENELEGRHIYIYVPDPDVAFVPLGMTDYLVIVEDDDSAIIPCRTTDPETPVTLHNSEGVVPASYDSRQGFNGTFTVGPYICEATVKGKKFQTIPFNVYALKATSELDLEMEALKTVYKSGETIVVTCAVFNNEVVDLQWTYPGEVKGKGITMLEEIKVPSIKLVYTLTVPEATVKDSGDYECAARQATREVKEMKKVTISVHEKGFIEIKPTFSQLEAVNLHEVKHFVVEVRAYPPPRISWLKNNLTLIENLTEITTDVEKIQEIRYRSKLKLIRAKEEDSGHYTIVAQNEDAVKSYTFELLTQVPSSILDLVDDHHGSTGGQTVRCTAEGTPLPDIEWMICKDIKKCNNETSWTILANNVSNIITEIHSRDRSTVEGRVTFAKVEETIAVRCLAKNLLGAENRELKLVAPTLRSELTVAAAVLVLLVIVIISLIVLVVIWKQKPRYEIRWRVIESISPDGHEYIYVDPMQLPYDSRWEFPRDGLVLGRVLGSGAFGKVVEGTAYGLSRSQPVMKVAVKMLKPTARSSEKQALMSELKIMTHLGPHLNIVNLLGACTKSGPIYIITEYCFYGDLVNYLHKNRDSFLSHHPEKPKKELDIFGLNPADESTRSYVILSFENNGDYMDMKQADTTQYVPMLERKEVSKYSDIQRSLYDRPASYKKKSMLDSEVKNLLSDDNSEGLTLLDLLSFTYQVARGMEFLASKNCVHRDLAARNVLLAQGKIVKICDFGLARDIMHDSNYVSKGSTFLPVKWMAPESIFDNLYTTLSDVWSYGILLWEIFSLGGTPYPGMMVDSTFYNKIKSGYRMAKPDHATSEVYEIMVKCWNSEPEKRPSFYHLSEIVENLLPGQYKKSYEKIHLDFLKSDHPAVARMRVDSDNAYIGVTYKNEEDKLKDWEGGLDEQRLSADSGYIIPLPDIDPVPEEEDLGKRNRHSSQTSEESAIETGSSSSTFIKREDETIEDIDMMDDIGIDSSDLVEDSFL", "UniProt O14757": "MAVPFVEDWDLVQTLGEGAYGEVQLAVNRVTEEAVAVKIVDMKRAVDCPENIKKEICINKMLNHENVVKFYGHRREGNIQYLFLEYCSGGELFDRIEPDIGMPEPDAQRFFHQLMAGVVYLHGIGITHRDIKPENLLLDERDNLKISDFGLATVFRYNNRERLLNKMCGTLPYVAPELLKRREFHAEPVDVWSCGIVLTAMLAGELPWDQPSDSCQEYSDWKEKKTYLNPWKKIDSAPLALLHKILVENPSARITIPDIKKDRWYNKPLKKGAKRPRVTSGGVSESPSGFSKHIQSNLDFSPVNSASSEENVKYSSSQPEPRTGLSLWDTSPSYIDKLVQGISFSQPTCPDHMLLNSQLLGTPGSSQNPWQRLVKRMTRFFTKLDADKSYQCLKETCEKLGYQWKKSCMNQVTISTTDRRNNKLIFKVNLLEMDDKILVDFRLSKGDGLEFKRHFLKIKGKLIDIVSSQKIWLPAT", "UniProt Q9H2X6": "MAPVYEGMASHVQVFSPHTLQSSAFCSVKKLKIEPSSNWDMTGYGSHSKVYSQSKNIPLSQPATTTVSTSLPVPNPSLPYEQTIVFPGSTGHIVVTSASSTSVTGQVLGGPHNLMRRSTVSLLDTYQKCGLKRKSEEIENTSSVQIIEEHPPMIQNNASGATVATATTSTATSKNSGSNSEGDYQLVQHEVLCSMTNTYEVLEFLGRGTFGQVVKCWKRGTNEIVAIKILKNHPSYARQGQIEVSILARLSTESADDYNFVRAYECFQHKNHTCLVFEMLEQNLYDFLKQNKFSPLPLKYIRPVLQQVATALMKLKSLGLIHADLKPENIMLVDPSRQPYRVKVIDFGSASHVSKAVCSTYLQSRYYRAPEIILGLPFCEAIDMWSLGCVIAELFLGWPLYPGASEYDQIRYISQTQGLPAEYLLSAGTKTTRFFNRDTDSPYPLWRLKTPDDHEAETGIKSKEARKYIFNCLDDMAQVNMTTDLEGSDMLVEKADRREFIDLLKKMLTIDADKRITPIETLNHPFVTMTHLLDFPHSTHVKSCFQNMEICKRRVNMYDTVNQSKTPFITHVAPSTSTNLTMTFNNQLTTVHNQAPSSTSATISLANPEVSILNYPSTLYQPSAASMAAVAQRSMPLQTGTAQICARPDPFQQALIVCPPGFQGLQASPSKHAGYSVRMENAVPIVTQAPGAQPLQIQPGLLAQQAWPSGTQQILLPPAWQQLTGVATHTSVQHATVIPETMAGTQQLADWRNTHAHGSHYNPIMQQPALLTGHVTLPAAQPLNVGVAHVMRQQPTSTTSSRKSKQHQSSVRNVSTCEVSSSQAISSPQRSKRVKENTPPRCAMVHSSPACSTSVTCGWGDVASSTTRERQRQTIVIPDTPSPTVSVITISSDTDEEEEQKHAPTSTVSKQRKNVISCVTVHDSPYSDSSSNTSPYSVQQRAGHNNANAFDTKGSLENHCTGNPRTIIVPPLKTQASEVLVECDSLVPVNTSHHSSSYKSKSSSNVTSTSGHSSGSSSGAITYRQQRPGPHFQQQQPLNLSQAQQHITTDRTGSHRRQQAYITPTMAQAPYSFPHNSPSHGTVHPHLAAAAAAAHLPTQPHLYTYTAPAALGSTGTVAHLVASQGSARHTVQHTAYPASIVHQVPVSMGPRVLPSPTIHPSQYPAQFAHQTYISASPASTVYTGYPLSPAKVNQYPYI", "UniProt Q56UN5": "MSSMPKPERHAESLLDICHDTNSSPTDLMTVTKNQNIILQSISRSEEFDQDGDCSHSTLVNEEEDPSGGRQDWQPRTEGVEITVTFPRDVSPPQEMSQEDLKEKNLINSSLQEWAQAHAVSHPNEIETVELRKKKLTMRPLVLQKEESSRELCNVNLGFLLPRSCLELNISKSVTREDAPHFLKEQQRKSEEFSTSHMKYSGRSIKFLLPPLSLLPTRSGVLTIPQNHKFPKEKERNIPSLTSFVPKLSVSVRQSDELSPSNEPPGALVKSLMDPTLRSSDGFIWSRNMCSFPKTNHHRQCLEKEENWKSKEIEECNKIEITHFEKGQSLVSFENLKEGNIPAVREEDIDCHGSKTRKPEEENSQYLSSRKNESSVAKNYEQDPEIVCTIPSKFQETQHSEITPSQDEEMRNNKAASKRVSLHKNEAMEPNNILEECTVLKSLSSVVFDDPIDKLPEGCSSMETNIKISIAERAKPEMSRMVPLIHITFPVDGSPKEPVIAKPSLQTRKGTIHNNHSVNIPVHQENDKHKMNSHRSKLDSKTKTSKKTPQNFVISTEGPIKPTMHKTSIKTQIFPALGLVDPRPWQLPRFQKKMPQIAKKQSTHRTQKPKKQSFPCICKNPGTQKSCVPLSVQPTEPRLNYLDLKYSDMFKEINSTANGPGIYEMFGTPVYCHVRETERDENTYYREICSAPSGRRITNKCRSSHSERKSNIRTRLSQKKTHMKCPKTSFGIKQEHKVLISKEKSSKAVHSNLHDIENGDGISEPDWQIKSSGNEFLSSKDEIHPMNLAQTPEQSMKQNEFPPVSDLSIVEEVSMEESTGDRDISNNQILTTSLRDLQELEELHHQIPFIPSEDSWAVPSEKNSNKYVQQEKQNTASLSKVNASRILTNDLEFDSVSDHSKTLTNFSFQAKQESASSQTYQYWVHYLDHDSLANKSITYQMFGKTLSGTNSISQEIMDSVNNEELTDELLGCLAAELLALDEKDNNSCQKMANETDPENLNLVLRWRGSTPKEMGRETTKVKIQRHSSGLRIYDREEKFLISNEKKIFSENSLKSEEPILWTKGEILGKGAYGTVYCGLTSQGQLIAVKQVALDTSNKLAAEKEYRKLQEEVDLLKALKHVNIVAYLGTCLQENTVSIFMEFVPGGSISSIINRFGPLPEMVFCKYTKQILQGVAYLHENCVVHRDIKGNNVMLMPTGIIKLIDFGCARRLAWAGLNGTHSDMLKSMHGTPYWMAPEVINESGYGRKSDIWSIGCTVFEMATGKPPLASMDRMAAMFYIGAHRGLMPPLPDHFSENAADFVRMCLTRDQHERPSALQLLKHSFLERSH", "UniProt O14965": "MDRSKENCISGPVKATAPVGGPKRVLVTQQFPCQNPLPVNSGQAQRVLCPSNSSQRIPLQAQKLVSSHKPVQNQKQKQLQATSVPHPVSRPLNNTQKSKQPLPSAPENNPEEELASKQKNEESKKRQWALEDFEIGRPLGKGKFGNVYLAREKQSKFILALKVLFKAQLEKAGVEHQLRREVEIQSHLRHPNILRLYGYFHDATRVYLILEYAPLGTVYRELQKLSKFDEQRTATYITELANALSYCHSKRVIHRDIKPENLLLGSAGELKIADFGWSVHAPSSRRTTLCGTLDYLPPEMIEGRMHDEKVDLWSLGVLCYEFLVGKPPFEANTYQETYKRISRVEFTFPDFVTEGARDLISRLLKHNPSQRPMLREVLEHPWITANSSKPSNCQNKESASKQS", "UniProt Q9UQ88": "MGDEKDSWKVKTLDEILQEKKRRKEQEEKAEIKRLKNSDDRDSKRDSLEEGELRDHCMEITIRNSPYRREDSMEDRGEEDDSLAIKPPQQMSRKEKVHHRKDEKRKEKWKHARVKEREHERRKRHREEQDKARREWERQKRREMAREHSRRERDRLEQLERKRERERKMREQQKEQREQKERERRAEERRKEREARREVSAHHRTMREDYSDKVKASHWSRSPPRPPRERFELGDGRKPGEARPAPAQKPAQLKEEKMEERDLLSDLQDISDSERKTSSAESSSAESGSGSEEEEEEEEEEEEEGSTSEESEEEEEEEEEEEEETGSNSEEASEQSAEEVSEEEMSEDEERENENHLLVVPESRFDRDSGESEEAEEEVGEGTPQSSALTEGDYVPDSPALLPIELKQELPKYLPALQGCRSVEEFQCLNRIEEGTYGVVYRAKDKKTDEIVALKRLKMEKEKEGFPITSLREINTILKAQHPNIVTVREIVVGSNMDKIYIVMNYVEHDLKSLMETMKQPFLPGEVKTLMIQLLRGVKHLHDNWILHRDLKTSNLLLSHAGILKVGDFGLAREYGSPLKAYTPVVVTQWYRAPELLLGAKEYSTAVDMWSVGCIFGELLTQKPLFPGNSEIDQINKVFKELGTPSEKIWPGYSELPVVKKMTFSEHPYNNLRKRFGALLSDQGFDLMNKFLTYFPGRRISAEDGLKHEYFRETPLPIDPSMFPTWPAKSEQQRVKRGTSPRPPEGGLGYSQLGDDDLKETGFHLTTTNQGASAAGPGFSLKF"},
  "source": "paper PMC11472320",
  "about": "“Computationally Driven Discovery of a BCR-ABL1 Kinase Inhibitor with Activity in Multidrug-Resistant Chronic Myeloid Leukemia” (Journal of Medicinal Chemistry, 2024)",
  "assay_in_all_cases": "biochemical",
  "settings_in_all_cases": "read-out: Percent Control",
  "key": {"PIM3": {"target": "PIM3 (Homo sapiens, UniProt Q86V86)"}, "SNARK": {"target": "SNARK (Homo sapiens, UniProt Q9H093)"}, "[1]": {"target": "TYK2(JH2domain-pseudokinase) (Homo sapiens, UniProt P29597)"}, "BRAF(V600E)": {"target": "BRAF(V600E) (Homo sapiens, UniProt P15056, V600E)"}, "IRAK1": {"target": "IRAK1 (Homo sapiens, UniProt P51617)"}, "EGFR(L858R)": {"target": "EGFR(L858R) (Homo sapiens, UniProt P00533, L858R)"}, "FLT3(D835Y)": {"target": "FLT3(D835Y) (Homo sapiens, UniProt P36888, D835Y)"}, "DAPK3": {"target": "DAPK3 (Homo sapiens, UniProt O43293)"}, "CASK": {"target": "CASK (Homo sapiens, UniProt O14936)"}, "HUNK": {"target": "HUNK (Homo sapiens, UniProt P57058)"}, "TIE1": {"target": "TIE1 (Homo sapiens, UniProt P35590)"}, "[2]": {"target": "RSK3(Kin.Dom.1-N-terminal) (Homo sapiens, UniProt Q15349)"}, "NIM1": {"target": "NIM1 (Homo sapiens, UniProt Q8IY84)"}, "MARK3": {"target": "MARK3 (Homo sapiens, UniProt P27448)"}, "AXL": {"target": "AXL (Homo sapiens, UniProt P30530)"}, "[3]": {"target": "RPS6KA4(Kin.Dom.1-N-terminal) (Homo sapiens, UniProt O75676)"}, "ARK5": {"target": "ARK5 (Homo sapiens, UniProt O60285)"}, "PDGFRA": {"target": "PDGFRA (Homo sapiens, UniProt P16234)"}, "CHEK1": {"target": "CHEK1 (Homo sapiens, UniProt O14757)"}, "CDK9": {"target": "CDK9 (Homo sapiens, UniProt P50750)"}, "PIK3CB": {"target": "PIK3CB (Homo sapiens, UniProt P42338)"}, "HIPK2": {"target": "HIPK2 (Homo sapiens, UniProt Q9H2X6)"}, "TAOK1": {"target": "TAOK1 (Homo sapiens, UniProt Q7L7X3)"}, "AAK1": {"target": "AAK1 (Homo sapiens, UniProt Q2M2I8)"}, "PCTK2": {"target": "PCTK2 (Homo sapiens, UniProt Q00537)"}, "GSK3A": {"target": "GSK3A (Homo sapiens, UniProt P49840)"}, "YSK4": {"target": "YSK4 (Homo sapiens, UniProt Q56UN5)"}, "CAMK2A": {"target": "CAMK2A (Homo sapiens, UniProt Q9UQM7)"}, "[4]": {"target": "RSK3(Kin.Dom.2-C-terminal) (Homo sapiens, UniProt Q15349)"}, "ITK": {"target": "ITK (Homo sapiens, UniProt Q08881)"}, "ZAK": {"target": "ZAK (Homo sapiens, UniProt Q9NYL2)"}, "TAOK2": {"target": "TAOK2 (Homo sapiens, UniProt Q9UL54)"}, "NDR2": {"target": "NDR2 (Homo sapiens, UniProt Q9Y2H1)"}, "FLT3": {"target": "FLT3 (Homo sapiens, UniProt P36888)"}, "WEE1": {"target": "WEE1 (Homo sapiens, UniProt P30291)"}, "AKT2": {"target": "AKT2 (Homo sapiens, UniProt P31751)"}, "SIK": {"target": "SIK (Homo sapiens, UniProt P57059)"}, "AURKA": {"target": "AURKA (Homo sapiens, UniProt O14965)"}, "STK35": {"target": "STK35 (Homo sapiens, UniProt Q8TDR2)"}, "EGFR(G719S)": {"target": "EGFR(G719S) (Homo sapiens, UniProt P00533, G719S)"}, "CDC2L2": {"target": "CDC2L2 (Homo sapiens, UniProt Q9UQ88)"}, "VPS34": {"target": "VPS34 (Homo sapiens, UniProt Q8NEB9)"}},
  "data": [
    {"compound": "COc1cc2c(Nc3ccc(Cl)c(OC)n3)c(C#N)cnc2cc1OCCON1CCN(C)CC1", "note": "[16a, 4-((5-Chloro-6-methoxypyridin-2-yl)amino)-6-methoxy-7-(2-((4-methylpiperazin-1-yl)oxy)ethoxy)quinoline-3-carbonitrile]", "values": [
      {"measurement": "remaining activity at 1 µM", "setting": "PIM3", "value": 84, "unit": "%"},
      {"measurement": "remaining activity at 1 µM", "setting": "SNARK", "value": 7.2, "unit": "%"},
      {"measurement": "remaining activity at 1 µM", "setting": "[1]", "value": 84, "unit": "%"},
      {"measurement": "remaining activity at 1 µM", "setting": "BRAF(V600E)", "value": 100, "unit": "%"},
      {"measurement": "remaining activity at 1 µM", "setting": "IRAK1", "value": 73, "unit": "%"},
      {"measurement": "remaining activity at 1 µM", "setting": "EGFR(L858R)", "value": 0.15, "unit": "%"},
      {"measurement": "remaining activity at 1 µM", "setting": "FLT3(D835Y)", "value": 13, "unit": "%"},
      {"measurement": "remaining activity at 1 µM", "setting": "DAPK3", "value": 83, "unit": "%"},
      {"measurement": "remaining activity at 1 µM", "setting": "CASK", "value": 68, "unit": "%"},
      {"measurement": "remaining activity at 1 µM", "setting": "HUNK", "value": 37, "unit": "%"},
      {"measurement": "remaining activity at 1 µM", "setting": "TIE1", "value": 81, "unit": "%"},
      {"measurement": "remaining activity at 1 µM", "setting": "[2]", "value": 75, "unit": "%"},
      {"measurement": "remaining activity at 1 µM", "setting": "NIM1", "value": 5.5, "unit": "%"},
      {"measurement": "remaining activity at 1 µM", "setting": "MARK3", "value": 95, "unit": "%"},
      {"measurement": "remaining activity at 1 µM", "setting": "AXL", "value": 7.4, "unit": "%"},
      {"measurement": "remaining activity at 1 µM", "setting": "[3]", "value": 95, "unit": "%"},
      {"measurement": "remaining activity at 1 µM", "setting": "ARK5", "value": 74, "unit": "%"},
      {"measurement": "remaining activity at 1 µM", "setting": "PDGFRA", "value": 100, "unit": "%"},
      {"measurement": "remaining activity at 1 µM", "setting": "CHEK1", "value": 6.9, "unit": "%"},
      {"measurement": "remaining activity at 1 µM", "setting": "CDK9", "value": 100, "unit": "%"},
      {"measurement": "remaining activity at 1 µM", "setting": "PIK3CB", "value": 96, "unit": "%"},
      {"measurement": "remaining activity at 1 µM", "setting": "HIPK2", "value": 64, "unit": "%"},
      {"measurement": "remaining activity at 1 µM", "setting": "TAOK1", "value": 73, "unit": "%"},
      {"measurement": "remaining activity at 1 µM", "setting": "AAK1", "value": 6.8, "unit": "%"},
      {"measurement": "remaining activity at 1 µM", "setting": "PCTK2", "value": 100, "unit": "%"},
      {"measurement": "remaining activity at 1 µM", "setting": "GSK3A", "value": 100, "unit": "%"},
      {"measurement": "remaining activity at 1 µM", "setting": "YSK4", "value": 0.35, "unit": "%"},
      {"measurement": "remaining activity at 1 µM", "setting": "CAMK2A", "value": 44, "unit": "%"},
      {"measurement": "remaining activity at 1 µM", "setting": "[4]", "value": 63, "unit": "%"},
      {"measurement": "remaining activity at 1 µM", "setting": "ITK", "value": 86, "unit": "%"},
      {"measurement": "remaining activity at 1 µM", "setting": "ZAK", "value": 1.6, "unit": "%"},
      {"measurement": "remaining activity at 1 µM", "setting": "TAOK2", "value": 56, "unit": "%"},
      {"measurement": "remaining activity at 1 µM", "setting": "NDR2", "value": 85, "unit": "%"},
      {"measurement": "remaining activity at 1 µM", "setting": "FLT3", "value": 27, "unit": "%"},
      {"measurement": "remaining activity at 1 µM", "setting": "WEE1", "value": 12, "unit": "%"},
      {"measurement": "remaining activity at 1 µM", "setting": "AKT2", "value": 97, "unit": "%"},
      {"measurement": "remaining activity at 1 µM", "setting": "SIK", "value": 1.1, "unit": "%"},
      {"measurement": "remaining activity at 1 µM", "setting": "AURKA", "value": 100, "unit": "%"},
      {"measurement": "remaining activity at 1 µM", "setting": "STK35", "value": 0.65, "unit": "%"},
      {"measurement": "remaining activity at 1 µM", "setting": "EGFR(G719S)", "value": 0.3, "unit": "%"},
      {"measurement": "remaining activity at 1 µM", "setting": "CDC2L2", "value": 96, "unit": "%"},
      {"measurement": "remaining activity at 1 µM", "setting": "VPS34", "value": 100, "unit": "%"}
    ]}
  ]
}
